SMILES strings stand for the structures.

Amino acid sequences for entries named in this document (tags omitted). A change or cut given only in a name is not applied to a line headed by its entry.
UniProt P11388: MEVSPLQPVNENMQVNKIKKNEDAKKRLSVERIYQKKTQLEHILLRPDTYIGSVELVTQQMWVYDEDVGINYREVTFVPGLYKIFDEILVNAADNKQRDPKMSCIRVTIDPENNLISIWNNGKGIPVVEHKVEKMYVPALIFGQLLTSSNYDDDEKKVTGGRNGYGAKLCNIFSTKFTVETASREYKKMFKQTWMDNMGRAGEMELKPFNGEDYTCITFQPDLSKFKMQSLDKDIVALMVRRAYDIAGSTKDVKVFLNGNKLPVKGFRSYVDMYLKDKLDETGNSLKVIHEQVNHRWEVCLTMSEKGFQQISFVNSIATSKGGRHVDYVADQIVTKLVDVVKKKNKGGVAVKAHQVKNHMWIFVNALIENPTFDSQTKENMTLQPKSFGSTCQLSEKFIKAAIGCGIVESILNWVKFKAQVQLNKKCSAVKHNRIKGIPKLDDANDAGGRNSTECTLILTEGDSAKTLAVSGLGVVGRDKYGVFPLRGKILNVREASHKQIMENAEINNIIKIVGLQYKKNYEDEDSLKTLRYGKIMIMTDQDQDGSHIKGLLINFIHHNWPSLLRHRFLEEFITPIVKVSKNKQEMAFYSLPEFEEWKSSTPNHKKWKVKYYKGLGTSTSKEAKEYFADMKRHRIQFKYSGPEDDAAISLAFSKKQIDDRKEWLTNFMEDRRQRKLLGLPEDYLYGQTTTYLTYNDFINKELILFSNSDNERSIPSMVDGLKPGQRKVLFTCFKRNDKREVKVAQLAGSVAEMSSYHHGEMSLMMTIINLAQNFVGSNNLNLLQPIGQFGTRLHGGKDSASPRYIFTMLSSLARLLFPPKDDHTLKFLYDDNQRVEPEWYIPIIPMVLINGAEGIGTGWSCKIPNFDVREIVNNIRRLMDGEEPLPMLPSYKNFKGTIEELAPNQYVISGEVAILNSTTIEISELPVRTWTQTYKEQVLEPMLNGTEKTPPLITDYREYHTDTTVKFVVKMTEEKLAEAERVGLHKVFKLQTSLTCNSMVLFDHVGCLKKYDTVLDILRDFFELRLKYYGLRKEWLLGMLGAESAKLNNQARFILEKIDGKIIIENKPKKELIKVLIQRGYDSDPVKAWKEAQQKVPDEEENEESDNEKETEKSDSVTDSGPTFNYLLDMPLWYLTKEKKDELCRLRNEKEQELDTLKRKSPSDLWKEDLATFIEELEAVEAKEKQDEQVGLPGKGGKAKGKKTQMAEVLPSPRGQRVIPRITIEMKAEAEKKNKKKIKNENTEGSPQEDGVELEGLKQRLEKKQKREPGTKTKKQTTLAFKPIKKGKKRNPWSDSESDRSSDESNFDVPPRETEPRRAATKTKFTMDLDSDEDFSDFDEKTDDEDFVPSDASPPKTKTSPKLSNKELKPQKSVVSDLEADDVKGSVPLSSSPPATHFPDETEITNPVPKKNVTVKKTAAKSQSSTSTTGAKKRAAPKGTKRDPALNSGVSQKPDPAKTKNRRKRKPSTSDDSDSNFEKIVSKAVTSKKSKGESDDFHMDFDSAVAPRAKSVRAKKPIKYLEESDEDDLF

This test has as its target topo IIα (Homo sapiens, UniProt P11388). Description: Topoisomerase II assay (DNA cleavage/relaxation). The test is classed as biochemical. The settings on record: 100 μM test compound. The text has this: The formation of linear DNA was detected by separating the SDS-treated reaction products using ethidium bromide gel electrophoresis and quantified by accounting for the relationship between fluorescence and relative band intensity for open circular (OC), linear (LNR), supercoiled (SC), and relaxed (RLX) configurations of DNA.
Topoisomerase II Assay. […] The formation of linear DNA was detected by separating the SDS-treated reaction products using ethidium bromide gel electrophoresis by a modification of a previously described procedure (Hasinoff B B et al. Mol. Pharmacol. 2005, 67, 937-947). In this system, topo II-mediated catalytic conversion of supercoiled pBR322 DNA to the “relaxed” form of plasmic' DNA can also be observed. […] The DNA in the gel was imaged by its fluorescence on a Chemi-Doc XRS+ imager (Bio-Rad, Hercules, Calif.). Linear DNA was quantified by accounting for the relationship between fluorescence and relative band intensity for open circular (QC), linear (LNR), supercoiled (SC), and RLX (relaxed) configurations of DNA (Projan S J et al. Plasmid 1983, 9, 182-190), then calculating % of LNR from the total DNA content in each lane.

For `COc1cc([C@@H]2c3cc4c(cc3[C@@H](O[C@@H]3O[C@@H]5CO[C@@H](C)O[C@H]5[C@H](O)[C@H]3O)[C@H]3COC(=O)[C@H]23)OCO4)cc(OC)c1O` [etoposide, reference compound], the “topo IIα inhibition (in words)” value is “showed topo Ha inhibitory activity”.

The values are drawn from patent publication US20170119806A1, “ARYLNAPHTHALENE LACTONE DERIVATIVES AND METHODS OF MAKING AND USING THEREOF” (OHIO STATE INNOVATION FOUNDATION, priority 2014, published 2017).
